Experimental data reported in ChEMBL document CHEMBL1129607, “Paracyclophanes: a novel class of water-soluble inhibitors of HIV proteinase” (J Med Chem, 1996).

Assays:
[1] = target: Human immunodeficiency virus type 1 protease (Human immunodeficiency virus 1, UniProt Q72874); experiment: Inhibition of HIV-1 proteinase was assayed in infected MT-4 cells; format: cell-based, MT4
[2] = tested on: MT4; experiment: Compound was tested for inhibition of HIV-1 protease was assayed in infected MT-4 cells; format: functional, cell-based, Homo sapiens

CC(C)[C@@H]1NC(=O)[C@@H]([C@H](O)[C@H](Cc2ccccc2)NC(=O)OC(C)(C)C)NCc2ccc(cc2)OCCOCCOCCNC1=O showed a Ki [1] of 0.0126 µM.

In the case of CC(C)[C@@H]1NC(=O)[C@@H]([C@H](O)[C@H](Cc2ccccc2)NC(=O)OC(C)(C)C)NCc2cccc(c2)OCCCCNC1=O, the Ki [2] is reported as 0.0161 µM.
